Reference: patent US20150292023A1, “Materials and Methods Related to NSAID Chemoprevention in Colorectal Cancer” (priority 2011, published 2015)

System: VpC^+/+ (wild type) mice
Conditions: mouse, in vivo
Description: Cohorts of equivalent gender Msh2^flox/floxVpC^+/+ mice were treated with NSAIDs including ASA that were mixed with powdered diet and administered ad libitum. VpC^+/+ (Msh2^++) mice were similarly examined to control for potentially confounding effects of continuous Cre expression in the intestine. Kaplan-Meier survival analyses were generated for each NSAID treatment (FIG. 2).

“nitric oxide-donating sulindac [NO-Sulindac]” was tested, and the “survival of wild type mice (in words)” value was “significant reduce the survival of the wild type mice”.
